From publication PMC8878114, “Lipophilicity and Pharmacokinetic Properties of New Anticancer Dipyridothiazine with 1,2,3-Triazole Substituents” (Molecules, 2022)

Legend:
[1] = calibration standards; cited from earlier work
[2] = experimental lipophilicity by RP-TLC (RM0, b, logPTLC); type: physicochemical; details: extrapolation to 0% acetone, acetone/TRIS buffer pH 7.4

CC(=O)c1ccccc1 [B, acetophenone, reference compound]
logPlit (row head of Table 6: logPTLC) [1]: 1.58 [32]
RM0 (relative lipophilicity parameter) [2]: 1.501
